These results are taken from US20020006903A1.

This experiment has as its target T cell receptor of the HLA-A2-restricted, HTLV-1 Tax11-19-specific CTL clone A6. The experiment is described as follows: flow cytometry on A6 cells. (A flow cytometer gives signals particle by particle.)

The substance “peptide-tethered tax-β2M HLA-A2/Ig complex (from UniProt P61769 21-119) (peptide-MHC)” showed a mean channel fluorescence (MCF) of 4000.
